# Laboratory results: US20260265717A1
# Target: MG64-1 Cas12k expressed with an N-terminal Twin Strep tag and an HRV3C protease site and a C-terminal 2xNLS tag
# Experiment: mass spectrometry of tryptic peptides from SEC-eluted Cas12k Strep pulldown complex; emPAI is a relative measure of abundance
substance,measurement,value
small prokaryotic ribosomal protein subunit S15 (from UniProt P0ADZ4 2-89),emPAI,0.46
